{"source": "patent US12492197B2", "about": "“3,5-disubstituted pyrazole compounds as kinase inhibitors and uses thereof” (IMPACT THERAPEUTICS (SHANGHAI), INC, priority 2019, dated 2025)", "type_in_all_cases": "cell-based", "key": {"[1]": {"test_system": "human colon cancer cell LoVo", "assay": "Proliferation of LoVo cells, MTT assay", "conditions": "96 h, 4 days treatment, read-out: IC50 (inhibition of proliferation of LoVo)", "experimental": "Newly revived LoVo cells (purchased from Shanghai Cell Institute) were cultured and passaged for at least three generations before use. Cells were used at 90% confluence for experiment. Cells were digested with trypsinase and centrifuged at 800 rpm for 5 minutes and the supernatant was discarded. The cell pellets were resuspended in fresh RPMI1640 medium and counted. Cells were seeded on 96-well cell culture plates at 5000 cells/well and incubated overnight at 37° C., 5% CO2. The stock solutions of the test substances (including the test compounds and the reference compound) were serially diluted to 8 concentrations with DMSO at a ratio of 1:3. 5 μL of each series diluted solutions was added to 120 μL of medium (diluted by 25 times) and mixed by shaking. The medium of the cells cultured overnight was replaced by 195 μL/well of fresh medium and 5 μL/well of diluted medium containing test compound. The cell culture plates were returned to incubator at 37° C. and 5% CO2 for 4 days. At the end of treatment, the cell viability was determined by MTT colorimetric assay. […] The plates were shaken for 10 minutes in darkness and the absorbance was measured at wavelengths of 552/690 nm in a multi-function reader.\n(§1) Data was analyzed by GraphPad Prism 6.0. […]"}, "[2]": {"test_system": "human breast cancer cell HCC1806", "assay": "Proliferation of HCC1806 cells, MTT assay", "conditions": "HCC1806, 72 h, 3 days treatment, read-out: IC50 (inhibition of proliferation of HCC1806)", "experimental": "Newly revived HCC1806 cells (purchased from Guangzhou Genio) were cultured and passaged for at least three generations before use. Cells were used at 90% confluency for experiments. Cells were digested with trypsinase and centrifuged at 800 rpm for 5 minutes. The cell pellets were resuspended in fresh RPMI1640 medium and cells were counted. Cells were seeded on 96-well cell culture plates at 2000 cells/well and incubated overnight at 37° C., 5% CO2. The stock solutions of the test substances (including the test compounds and the reference compound) were serially diluted to 8 concentrations with DMSO at a ratio of 1:3. Five μL of each of the serially diluted solutions were added to 120 μL of medium (diluted by 25 times) and mixed by shaking. The medium of cells cultured overnight was replaced by 195 μL/well of fresh medium and 5 μL/well of diluted medium containing test compounds. The cell culture plates were returned to incubator at 37° C., 5% CO2 for 3 days. At the end of treatment the cell viability was determined by MTT colorimetric assay. […] Medium was then discarded and 100 μL/well of DMSO was added, the plates were shaken for 10 minutes in darkness and the absorbances were measured at the wavelengths of 552/690 nm in a multi-function reader.\nas §1"}, "[3]": {"test_system": "human pancreatic cancer cell SW1990", "assay": "Proliferation of SW1990 cells, MTT assay", "conditions": "SW1990, 120 h, 5 days treatment, read-out: IC50 (inhibition of proliferation of SW1990)", "experimental": "Newly revived SW1990 cells (purchased from Shanghai Fuheng Biology) were cultured and passaged for at least three generations before use. Cells were used at about 90% confluency for experiments. Cells were digested with trypsinase and centrifuged at 800 rpm for 5 minutes. The cell pellets were resuspended in fresh DMEM medium and cells were counted. Cells were seeded on 96-well cell culture plates at 5000 cells/well and incubated overnight at 37° C., 5% CO2. The stock solutions of the test substances (including the test compounds and the reference compound) were serially diluted to 8 concentrations with DMSO at a ratio of 1:3. 5 μL of each serially diluted solutions was added to 120 μL of medium (diluted by 25 times) and mixed by shaking. The medium of cells cultured overnight was replaced by 195 μL/well of fresh medium and 5 μL/well of diluted medium containing test compounds. The cell culture plates were returned to incubator at 37° C. and 5% CO2 for 5 days. At the end of the treatment the cell viability was determined by MTT colorimetric assay. […] The plates were shaken for 10 minutes in darkness and the absorbances were measured at wavelengths of 552/690 nm in a multi-function reader.\nas §1"}}, "note": "pIC50: −log10 of the molar value.", "data": [{"smiles": "COc1cccc(OCCCN)c1-c1cc(Nc2cnc(C#N)cn2)n[nH]1", "note": "[LY2606368, reference compound]", "values": [{"measurement": "pIC50", "setting": "[1]", "value": 8.25}, {"measurement": "pIC50", "setting": "[2]", "value": 8.46}, {"measurement": "pIC50", "setting": "[3]", "value": 8.48}]}]}
